From PMC11051419, “Structural Insights into the Marine Alkaloid Discorhabdin G as a Scaffold towards New Acetylcholinesterase Inhibitors” (Marine Drugs, 2024)

The chains behind the UniProt entries cited, without tags or fusion partners. Residues count along the entry.
UniProt P81908, whole entry: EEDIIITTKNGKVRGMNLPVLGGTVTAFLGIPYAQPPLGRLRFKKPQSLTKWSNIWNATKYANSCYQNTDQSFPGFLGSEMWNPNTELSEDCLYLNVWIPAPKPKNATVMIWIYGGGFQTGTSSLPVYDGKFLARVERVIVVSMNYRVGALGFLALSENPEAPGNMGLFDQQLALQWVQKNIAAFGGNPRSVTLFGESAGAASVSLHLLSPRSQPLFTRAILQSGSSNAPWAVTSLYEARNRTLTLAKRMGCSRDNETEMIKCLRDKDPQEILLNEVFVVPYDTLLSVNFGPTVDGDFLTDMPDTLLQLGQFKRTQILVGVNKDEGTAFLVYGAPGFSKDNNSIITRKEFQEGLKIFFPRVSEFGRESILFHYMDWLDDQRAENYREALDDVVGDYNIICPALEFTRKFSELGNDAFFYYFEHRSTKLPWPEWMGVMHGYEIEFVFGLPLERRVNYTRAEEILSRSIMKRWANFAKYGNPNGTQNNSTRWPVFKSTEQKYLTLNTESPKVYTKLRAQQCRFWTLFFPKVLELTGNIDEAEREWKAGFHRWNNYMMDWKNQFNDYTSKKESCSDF
UniProt O42275, 24-633: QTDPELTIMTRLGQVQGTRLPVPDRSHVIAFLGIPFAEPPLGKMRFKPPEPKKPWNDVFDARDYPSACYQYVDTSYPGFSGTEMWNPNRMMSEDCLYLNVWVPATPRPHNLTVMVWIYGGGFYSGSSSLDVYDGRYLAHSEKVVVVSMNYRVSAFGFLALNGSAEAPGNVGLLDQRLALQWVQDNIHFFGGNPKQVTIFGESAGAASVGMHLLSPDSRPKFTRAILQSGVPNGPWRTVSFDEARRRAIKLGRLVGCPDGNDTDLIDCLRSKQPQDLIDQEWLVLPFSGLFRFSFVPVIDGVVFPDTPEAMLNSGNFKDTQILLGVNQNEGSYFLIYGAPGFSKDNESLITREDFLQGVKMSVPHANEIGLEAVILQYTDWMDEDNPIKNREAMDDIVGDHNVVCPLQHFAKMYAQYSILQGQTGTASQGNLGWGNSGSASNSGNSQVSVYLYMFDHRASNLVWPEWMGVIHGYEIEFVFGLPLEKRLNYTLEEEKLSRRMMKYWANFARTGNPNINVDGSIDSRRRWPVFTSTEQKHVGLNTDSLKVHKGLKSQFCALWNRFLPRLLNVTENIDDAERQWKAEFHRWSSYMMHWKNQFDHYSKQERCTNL

Tests used:
[1] = biological target: T1, horse serum butyrylcholinesterase (BChE) (Equus caballus, UniProt P81908); assay: Inhibition of horse serum butyrylcholinesterase (modified Ellman method); type: biochemical; details: pH 7.4, 25 °C, 3 as acetate salt
T1 construct: human recombinant AChE (hAChE), and horse serum BChE; purchased Sigma-Aldrich; host or cells: horse serum
Protocol: (§1) The inhibition of cholinesterase activity was determined using a modification of the Ellman method, which was adapted for microtiter plates. Stock solutions of 3, 7, and 8 (2 mg/mL) were prepared in pure EtOH. […] Stock solutions of the potential inhibitors and the positive controls were added to the microtiter plate wells and progressively diluted in 100 mM potassium phosphate buffer (pH 7.4) to a final volume of 50 μL. Then, 100 μL acetylthiocholine chloride (1 mM) and 5,5′-dithiobis-2-nitrobenzoic acid (0.5 mM) in 100 mM potassium phosphate buffer (pH 7.4) was added into the microtiter plate wells. The cholinesterases that were used (eeAChE, hAChE, and BChE; all from Sigma-Aldrich, St. Louis, MO, USA) were dissolved in 100 mM potassium phosphate buffer (pH 7.4) to a final concentration of 0.0075 U/mL. Each cholinesterase solution (50 μL) was added into the microtiter plate wells to start the reaction, which was followed spectrophotometrically at 405 nm at 25 °C over 5 min using a kinetic microplate reader (Dynex Technologies Inc., Chantilly, VA, USA). Blank reactions without inhibitors were run with the appropriate dilutions of EtOH, and the readings were corrected according to the corresponding blanks. Each measurement was repeated at least three times. […] The data were analyzed using the OriginPro software (OriginPro 2021 (9.8), OriginLab Corporation, Northampton, MA, USA).

[2] = biological target: T2, electric eel acetylcholinesterase (eeAChE) (Electrophorus electricus, UniProt O42275); assay: Inhibition of electric eel acetylcholinesterase (modified Ellman method); type: biochemical; details: pH 7.4, 25 °C, 3 as acetate salt
T2 construct: purchased Sigma-Aldrich
Protocol: as §1

[3] = biological target: T1, horse serum butyrylcholinesterase (BChE); details: discorhabdin G as trifluoroacetate (TFA) salt; ref Botić et al. [5]; cited from earlier work
[4] = biological target: T2, electric eel acetylcholinesterase (eeAChE); details: discorhabdin G as trifluoroacetate (TFA) salt; ref Botić et al. [5]; cited from earlier work

CNC(=O)Oc1ccc2c(c1)[C@]1(C)CCN(C)[C@@H]1N2C [Physostigmine salicylate, reference compound]
IC50 [1]: 14.5 µM | IC50 [2]: 7.3 µM | IC50 [3]: 28.5 µM | IC50 [4]: 3 µM

Read-outs that look alike come from different tables or passages of the source.
